Test results reported in ChEMBL document CHEMBL5532663, “Discovery of Potent and Selective Phosphatidylinositol 3-Phosphate 5-Kinase (PIKfyve) Inhibitors as Methuosis Inducers” (J Med Chem, 2024).

By UniProt entry, the sequences of proteins in these tests, tags left out. Where a name states a change or a piece, a line headed by the entry shows the natural chain unless it says otherwise.
UniProt P27986, whole entry, looked up: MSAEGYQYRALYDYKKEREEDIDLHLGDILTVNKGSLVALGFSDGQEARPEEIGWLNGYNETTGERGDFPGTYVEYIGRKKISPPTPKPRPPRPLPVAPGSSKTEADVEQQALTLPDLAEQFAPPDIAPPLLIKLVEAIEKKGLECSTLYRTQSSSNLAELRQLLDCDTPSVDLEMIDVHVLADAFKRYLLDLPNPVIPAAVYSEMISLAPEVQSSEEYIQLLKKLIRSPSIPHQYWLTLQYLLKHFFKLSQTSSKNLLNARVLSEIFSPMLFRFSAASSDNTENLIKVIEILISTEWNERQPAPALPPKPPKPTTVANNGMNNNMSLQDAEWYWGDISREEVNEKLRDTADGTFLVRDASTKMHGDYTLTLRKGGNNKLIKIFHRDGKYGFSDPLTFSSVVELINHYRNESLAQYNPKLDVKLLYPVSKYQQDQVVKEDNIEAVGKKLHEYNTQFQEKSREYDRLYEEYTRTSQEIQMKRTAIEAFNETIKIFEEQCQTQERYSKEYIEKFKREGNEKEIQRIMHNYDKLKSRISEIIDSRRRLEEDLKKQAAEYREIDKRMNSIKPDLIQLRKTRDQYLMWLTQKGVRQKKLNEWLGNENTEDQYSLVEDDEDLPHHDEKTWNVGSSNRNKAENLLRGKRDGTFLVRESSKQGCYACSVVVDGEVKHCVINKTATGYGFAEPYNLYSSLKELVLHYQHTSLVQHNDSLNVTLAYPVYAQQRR
UniProt P42336: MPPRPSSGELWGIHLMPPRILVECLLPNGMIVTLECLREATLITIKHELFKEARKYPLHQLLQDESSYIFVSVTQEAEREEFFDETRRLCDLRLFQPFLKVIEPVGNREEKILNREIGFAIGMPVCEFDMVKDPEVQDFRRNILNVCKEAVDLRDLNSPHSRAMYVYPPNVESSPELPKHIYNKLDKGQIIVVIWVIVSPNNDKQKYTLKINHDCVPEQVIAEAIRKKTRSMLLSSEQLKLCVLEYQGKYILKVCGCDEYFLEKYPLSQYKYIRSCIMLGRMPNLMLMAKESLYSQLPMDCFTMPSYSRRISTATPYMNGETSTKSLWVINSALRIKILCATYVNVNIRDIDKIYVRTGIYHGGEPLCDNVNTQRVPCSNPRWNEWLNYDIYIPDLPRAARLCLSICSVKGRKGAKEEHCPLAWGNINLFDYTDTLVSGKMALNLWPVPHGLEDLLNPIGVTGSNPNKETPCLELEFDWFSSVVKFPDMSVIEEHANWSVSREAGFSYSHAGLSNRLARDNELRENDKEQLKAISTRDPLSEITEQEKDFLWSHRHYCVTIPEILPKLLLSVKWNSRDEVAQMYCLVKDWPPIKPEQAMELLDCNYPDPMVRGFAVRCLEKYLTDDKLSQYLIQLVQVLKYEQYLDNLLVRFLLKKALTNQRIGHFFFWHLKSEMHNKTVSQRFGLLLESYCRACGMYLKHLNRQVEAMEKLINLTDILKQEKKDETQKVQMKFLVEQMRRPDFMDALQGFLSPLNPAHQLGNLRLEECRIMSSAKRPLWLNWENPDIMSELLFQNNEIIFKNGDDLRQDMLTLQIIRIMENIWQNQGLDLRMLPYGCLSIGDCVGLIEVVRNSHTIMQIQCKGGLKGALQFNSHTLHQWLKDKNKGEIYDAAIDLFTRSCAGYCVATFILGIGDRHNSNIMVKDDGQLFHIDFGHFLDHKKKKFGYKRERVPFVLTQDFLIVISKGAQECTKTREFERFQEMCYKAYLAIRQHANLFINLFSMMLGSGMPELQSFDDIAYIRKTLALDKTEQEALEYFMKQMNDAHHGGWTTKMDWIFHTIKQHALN
UniProt P48736: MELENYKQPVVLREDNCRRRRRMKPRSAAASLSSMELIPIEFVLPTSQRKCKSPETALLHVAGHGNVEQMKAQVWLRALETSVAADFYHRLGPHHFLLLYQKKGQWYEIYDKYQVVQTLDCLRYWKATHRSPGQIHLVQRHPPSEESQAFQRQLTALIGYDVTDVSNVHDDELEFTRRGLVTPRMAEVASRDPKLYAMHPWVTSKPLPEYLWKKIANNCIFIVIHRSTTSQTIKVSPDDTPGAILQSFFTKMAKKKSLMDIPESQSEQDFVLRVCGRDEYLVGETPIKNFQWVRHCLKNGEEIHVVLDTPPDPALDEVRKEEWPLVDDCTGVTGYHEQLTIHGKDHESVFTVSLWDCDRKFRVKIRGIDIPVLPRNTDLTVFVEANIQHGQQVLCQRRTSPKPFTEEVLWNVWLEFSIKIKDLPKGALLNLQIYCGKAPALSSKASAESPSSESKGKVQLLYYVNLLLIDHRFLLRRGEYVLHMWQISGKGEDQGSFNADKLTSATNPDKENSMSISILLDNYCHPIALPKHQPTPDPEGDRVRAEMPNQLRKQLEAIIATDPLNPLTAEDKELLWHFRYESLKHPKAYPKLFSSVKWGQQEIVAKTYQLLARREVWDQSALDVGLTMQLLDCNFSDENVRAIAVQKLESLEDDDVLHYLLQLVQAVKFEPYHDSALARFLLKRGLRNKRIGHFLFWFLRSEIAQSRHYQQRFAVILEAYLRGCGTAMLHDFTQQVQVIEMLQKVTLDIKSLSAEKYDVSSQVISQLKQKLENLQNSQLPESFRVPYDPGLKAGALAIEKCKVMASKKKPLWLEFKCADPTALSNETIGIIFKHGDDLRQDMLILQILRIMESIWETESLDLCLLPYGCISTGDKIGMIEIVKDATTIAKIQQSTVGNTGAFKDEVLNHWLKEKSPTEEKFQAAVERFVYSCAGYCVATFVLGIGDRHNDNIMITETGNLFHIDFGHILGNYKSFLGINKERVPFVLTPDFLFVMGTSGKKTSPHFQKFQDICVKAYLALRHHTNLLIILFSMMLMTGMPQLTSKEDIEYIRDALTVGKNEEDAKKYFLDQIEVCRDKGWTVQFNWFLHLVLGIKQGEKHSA
UniProt P62942, whole entry, looked up: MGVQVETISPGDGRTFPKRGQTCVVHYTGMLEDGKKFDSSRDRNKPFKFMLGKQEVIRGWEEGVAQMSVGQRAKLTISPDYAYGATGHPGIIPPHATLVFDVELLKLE
UniProt Q13535: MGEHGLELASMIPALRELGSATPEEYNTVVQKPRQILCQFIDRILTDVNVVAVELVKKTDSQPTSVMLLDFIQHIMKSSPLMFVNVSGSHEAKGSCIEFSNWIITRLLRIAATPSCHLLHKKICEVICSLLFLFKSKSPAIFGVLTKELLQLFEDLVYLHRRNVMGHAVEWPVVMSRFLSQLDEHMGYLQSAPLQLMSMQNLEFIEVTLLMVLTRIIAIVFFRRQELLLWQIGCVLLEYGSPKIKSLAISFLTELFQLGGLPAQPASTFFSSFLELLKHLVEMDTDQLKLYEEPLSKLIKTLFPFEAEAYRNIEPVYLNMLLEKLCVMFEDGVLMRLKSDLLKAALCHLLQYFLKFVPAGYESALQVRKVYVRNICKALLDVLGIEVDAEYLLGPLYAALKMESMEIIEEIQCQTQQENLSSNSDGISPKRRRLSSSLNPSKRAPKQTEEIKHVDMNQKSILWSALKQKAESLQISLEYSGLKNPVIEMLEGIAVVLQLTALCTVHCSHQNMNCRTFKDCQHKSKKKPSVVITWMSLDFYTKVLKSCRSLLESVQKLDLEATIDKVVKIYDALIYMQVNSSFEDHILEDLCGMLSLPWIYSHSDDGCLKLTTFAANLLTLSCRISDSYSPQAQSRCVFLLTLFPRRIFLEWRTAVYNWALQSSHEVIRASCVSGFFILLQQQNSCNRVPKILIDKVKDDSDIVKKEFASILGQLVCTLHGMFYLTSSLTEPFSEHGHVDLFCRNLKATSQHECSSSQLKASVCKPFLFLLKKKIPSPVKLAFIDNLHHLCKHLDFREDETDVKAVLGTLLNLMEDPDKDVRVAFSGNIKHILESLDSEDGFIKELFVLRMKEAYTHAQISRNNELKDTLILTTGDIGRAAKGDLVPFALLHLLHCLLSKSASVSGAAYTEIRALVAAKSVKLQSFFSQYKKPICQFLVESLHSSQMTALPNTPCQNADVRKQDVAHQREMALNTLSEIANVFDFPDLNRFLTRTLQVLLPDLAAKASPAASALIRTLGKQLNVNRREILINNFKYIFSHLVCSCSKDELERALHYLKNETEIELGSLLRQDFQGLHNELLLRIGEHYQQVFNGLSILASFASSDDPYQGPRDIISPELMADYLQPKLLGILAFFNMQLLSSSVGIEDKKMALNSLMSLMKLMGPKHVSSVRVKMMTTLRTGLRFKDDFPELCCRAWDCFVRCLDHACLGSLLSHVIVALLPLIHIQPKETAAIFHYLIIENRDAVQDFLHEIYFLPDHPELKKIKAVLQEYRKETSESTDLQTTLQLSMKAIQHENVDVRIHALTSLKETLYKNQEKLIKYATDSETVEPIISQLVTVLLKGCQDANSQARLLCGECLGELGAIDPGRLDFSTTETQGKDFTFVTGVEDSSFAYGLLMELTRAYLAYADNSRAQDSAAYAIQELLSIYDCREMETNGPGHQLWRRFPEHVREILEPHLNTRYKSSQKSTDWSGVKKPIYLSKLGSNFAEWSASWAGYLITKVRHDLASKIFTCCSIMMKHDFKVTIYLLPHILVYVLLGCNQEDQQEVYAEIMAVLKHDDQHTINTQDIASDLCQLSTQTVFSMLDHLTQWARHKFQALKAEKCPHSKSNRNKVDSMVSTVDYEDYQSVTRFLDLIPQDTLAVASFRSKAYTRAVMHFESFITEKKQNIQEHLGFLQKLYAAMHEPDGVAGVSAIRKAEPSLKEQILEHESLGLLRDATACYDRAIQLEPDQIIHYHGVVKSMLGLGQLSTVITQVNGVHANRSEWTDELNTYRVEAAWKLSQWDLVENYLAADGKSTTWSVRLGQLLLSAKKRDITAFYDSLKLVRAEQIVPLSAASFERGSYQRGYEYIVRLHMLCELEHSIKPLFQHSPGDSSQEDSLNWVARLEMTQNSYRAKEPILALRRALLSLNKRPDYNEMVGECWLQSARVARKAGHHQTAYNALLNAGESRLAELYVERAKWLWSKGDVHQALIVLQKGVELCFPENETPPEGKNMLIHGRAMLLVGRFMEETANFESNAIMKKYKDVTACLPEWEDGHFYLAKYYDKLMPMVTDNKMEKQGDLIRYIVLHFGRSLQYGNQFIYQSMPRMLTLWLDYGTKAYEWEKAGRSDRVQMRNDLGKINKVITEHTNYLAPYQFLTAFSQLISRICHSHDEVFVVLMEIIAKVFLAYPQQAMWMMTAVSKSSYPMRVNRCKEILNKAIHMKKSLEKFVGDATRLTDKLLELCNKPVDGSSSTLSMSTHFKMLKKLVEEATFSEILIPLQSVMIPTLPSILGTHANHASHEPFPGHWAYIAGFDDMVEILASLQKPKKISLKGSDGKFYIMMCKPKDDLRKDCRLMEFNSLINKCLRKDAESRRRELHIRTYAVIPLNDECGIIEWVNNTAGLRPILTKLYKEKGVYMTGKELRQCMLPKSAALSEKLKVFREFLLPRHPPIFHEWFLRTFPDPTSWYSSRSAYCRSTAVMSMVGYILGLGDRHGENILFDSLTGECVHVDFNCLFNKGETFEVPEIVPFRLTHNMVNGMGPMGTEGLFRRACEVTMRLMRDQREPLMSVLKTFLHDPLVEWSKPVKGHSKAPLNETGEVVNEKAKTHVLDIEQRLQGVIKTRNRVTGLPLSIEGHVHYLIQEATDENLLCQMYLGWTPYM
UniProt Q8WXE1: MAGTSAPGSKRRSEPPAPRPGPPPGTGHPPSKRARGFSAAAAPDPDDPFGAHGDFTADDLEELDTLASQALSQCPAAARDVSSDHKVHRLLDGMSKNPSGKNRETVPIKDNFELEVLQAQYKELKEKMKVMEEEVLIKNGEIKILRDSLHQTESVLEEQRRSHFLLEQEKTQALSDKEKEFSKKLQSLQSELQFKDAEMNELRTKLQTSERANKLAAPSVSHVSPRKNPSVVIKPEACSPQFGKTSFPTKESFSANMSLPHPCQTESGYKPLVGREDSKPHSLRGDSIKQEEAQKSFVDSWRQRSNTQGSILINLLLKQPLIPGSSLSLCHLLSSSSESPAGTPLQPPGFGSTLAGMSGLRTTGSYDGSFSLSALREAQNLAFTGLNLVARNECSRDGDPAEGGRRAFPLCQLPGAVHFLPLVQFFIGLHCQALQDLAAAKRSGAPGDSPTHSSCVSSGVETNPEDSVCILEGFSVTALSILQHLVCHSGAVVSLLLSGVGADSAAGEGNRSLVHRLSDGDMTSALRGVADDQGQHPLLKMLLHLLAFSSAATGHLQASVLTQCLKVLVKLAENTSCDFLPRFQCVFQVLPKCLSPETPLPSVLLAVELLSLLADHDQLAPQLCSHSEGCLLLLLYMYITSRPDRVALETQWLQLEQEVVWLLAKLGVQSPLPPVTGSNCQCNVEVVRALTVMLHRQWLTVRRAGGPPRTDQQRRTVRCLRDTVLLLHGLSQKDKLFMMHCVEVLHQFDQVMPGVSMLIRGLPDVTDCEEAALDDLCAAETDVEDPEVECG

Columns and labels:
[1] = target: T1, Phosphatidylinositol 5-phosphate 4-kinase type-2 alpha (Homo sapiens) (UniProt P48426); experiment: Inhibition of PIP4K2alpha (unknown origin) assessed as residual activity at 1000 nM in presence of gamma33P-ATP by radiometric assay relative to control
T1 sequence (whole entry): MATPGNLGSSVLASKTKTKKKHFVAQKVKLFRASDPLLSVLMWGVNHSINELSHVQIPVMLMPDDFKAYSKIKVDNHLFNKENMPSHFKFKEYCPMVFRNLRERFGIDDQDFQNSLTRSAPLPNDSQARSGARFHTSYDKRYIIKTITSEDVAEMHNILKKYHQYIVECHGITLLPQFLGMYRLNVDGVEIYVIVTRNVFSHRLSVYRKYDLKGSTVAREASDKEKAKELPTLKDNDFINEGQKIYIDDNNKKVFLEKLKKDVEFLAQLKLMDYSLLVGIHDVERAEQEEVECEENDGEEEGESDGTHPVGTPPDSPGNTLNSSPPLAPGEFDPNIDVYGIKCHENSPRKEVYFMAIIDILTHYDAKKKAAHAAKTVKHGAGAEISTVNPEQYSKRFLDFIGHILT

[2] = Apparent volume of distribution in Balb/C mouse at 50 mg/kg, po measured for 24 hrs by LC-MS/MS analysis; type: ADME, organism-based; conditions: in vivo
[3] = test system: PI3-kinase p110-alpha/p85-alpha (Homo sapiens), P27986+P42336 [E542K]; experiment: Inhibition of p110alpha E542K mutant/p85alpha (unknown origin) assessed as residual activity at 1000 nM in presence of gamma33P-ATP by radiometric assay relative to control; type: protein-complex assay
[4] = target: DNA-dependent protein kinase catalytic subunit (Homo sapiens) (UniProt P78527); experiment: Inhibition of DNA-PK (unknown origin) assessed as residual activity at 1000 nM in presence of gamma33P-ATP by radiometric assay relative to control
[5] = target: Serine-protein kinase ATM (Homo sapiens) (UniProt Q13315); experiment: Inhibition of ATM (unknown origin) assessed as residual activity at 1000 nM in presence of gamma33P-ATP by radiometric assay relative to control
[6] = Half life in Balb/C mouse at 10 mg/kg, iv measured for 24 hrs by LC-MS/MS analysis; type: ADME, organism-based; conditions: in vivo
[7] = mouse, in vivo, iv, 10 mg/kg, 24 h
[8] = target: PIK3CG/PIK3R1 (Homo sapiens) (UniProt P27986+P48736); experiment: Inhibition of p110gamma/p85alpha (unknown origin) assessed as residual activity at 1000 nM in presence of gamma33P-ATP by radiometric assay relative to control; type: protein-complex assay
[9] = target: PI3K p110 beta/p85 alpha (Homo sapiens) (UniProt P27986+P42338); experiment: Inhibition of p110beta/p85alpha (unknown origin) assessed as residual activity at 1000 nM in presence of gamma33P-ATP by radiometric assay relative to control; type: protein-complex assay
[10] = target: FKBP12A/mTOR (Homo sapiens) (UniProt P62942+P42345); experiment: Inhibition of mTOR/FKBP12 (unknown origin) assessed as residual activity at 1000 nM in presence of gamma33P-ATP by radiometric assay relative to control; type: protein-complex assay
[11] = target: PI3-kinase p110-alpha/p85-alpha (Homo sapiens) (UniProt P27986+P42336); experiment: Inhibition of p110alpha/p85alpha (unknown origin) assessed as residual activity at 1000 nM in presence of gamma33P-ATP by radiometric assay relative to control; type: protein-complex assay
[12] = target: T2, Phosphatidylinositol 3-kinase C2 domain-containing subunit gamma (Homo sapiens) (UniProt O75747); experiment: Inhibition of PI3KC2gamma (unknown origin) assessed as residual activity at 1000 nM in presence of gamma33P-ATP by radiometric assay relative to control
T2 sequence (whole entry): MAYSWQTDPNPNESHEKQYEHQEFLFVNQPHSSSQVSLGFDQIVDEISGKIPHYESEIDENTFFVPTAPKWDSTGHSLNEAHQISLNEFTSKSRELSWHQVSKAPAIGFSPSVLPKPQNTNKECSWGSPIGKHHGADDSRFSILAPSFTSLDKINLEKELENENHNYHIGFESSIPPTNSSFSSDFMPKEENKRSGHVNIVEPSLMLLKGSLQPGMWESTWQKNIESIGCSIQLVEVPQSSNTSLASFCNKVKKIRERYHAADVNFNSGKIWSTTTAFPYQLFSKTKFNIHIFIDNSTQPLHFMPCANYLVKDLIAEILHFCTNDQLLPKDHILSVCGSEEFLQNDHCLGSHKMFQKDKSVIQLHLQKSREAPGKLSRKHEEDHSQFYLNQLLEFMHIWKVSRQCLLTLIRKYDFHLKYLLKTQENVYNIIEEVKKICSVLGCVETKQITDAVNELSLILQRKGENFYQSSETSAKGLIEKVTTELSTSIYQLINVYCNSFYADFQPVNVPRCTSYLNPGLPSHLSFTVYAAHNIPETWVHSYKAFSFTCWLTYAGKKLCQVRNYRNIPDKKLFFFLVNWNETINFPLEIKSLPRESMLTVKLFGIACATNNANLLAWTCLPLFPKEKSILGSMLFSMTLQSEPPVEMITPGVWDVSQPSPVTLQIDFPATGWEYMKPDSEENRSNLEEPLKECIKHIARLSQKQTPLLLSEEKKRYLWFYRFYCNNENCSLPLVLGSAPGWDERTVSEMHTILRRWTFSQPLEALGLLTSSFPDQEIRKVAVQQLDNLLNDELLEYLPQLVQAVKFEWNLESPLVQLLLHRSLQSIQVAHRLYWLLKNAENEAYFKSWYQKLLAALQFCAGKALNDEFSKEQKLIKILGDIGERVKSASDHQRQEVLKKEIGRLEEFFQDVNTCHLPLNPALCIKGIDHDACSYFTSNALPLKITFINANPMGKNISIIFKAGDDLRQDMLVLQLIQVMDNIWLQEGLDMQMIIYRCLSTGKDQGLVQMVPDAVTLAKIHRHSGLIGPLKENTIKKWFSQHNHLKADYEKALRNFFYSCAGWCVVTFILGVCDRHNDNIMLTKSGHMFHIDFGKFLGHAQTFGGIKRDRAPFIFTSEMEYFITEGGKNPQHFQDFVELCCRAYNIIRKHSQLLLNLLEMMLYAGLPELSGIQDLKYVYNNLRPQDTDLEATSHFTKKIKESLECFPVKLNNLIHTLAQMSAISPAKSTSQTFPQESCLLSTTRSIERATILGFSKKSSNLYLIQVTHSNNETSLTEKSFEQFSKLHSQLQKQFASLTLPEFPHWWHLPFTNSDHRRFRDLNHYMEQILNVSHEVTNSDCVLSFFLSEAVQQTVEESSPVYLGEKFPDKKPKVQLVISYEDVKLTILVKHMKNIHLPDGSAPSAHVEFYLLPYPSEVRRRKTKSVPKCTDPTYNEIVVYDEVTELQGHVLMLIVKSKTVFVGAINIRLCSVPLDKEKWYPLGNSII

[13] = target: Phosphatidylinositol 4,5-bisphosphate 3-kinase catalytic subunit gamma isoform (Homo sapiens) (UniProt P48736); experiment: Inhibition of p120gamma (unknown origin) assessed as residual activity at 1000 nM in presence of gamma33P-ATP by radiometric assay relative to control
[14] = Toxicity in NOD/SCID mouse model xenografted with human HeLa cells assessed as body weight loss at 20 mg/kg, po qd treated for 10 days; type: organism-based; conditions: in vivo, 240 h, time 10 day
[15] = target: ATR/ATRIP (Homo sapiens) (UniProt Q13535+Q8WXE1); experiment: Inhibition of ATR/ATR1P (unknown origin) assessed as residual activity at 1000 nM in presence of gamma33P-ATP by radiometric assay relative to control; type: protein-complex assay
[16] = target: Phosphatidylinositol 4-phosphate 3-kinase C2 domain-containing subunit alpha (Homo sapiens) (UniProt O00443); experiment: Inhibition of PI3KC2alpha (unknown origin) assessed as residual activity at 1000 nM in presence of gamma33P-ATP by radiometric assay relative to control
[17] = target: Serine/threonine-protein kinase mTOR (Homo sapiens) (UniProt P42345); experiment: Inhibition of mTOR (unknown origin) assessed as residual activity at 1000 nM in presence of gamma33P-ATP by radiometric assay relative to control
[18] = target: Phosphatidylinositol 4-phosphate 5-kinase type-1 gamma (Homo sapiens) (UniProt O60331); experiment: Inhibition of PIP5K1gamma (unknown origin) assessed as residual activity at 1000 nM in presence of gamma33P-ATP by radiometric assay relative to control

## Cc1ccc2oc(-c3cn([C@H]4CC[C@@H](N)CC4)c4ncnc(N)c34)cc2c1
[1]
  Activity: 78%
[2]
  Vz: 0.61 L/kg
[3]
  Activity: 48%
[4]
  Activity: 47%
[5]
  Activity: 102%
[6]
  t1/2: 4.21 h
[7]
  AUCt: 35840 ng·h/mL
[8]
  Activity: 39%
[9]
  Activity: 90%
[10]
  Activity: 103%
[11]
  Activity: 73%
[12]
  Activity: 88%
[13]
  Activity: 90%
[14]
  Activity: Non-Toxic
[15]
  Activity: 91%
[16]
  Activity: 88%
[17]
  Activity: 103%
[18]
  Activity: 31%
